Laboratory results: ChEMBL document CHEMBL3259781 (J Med Chem, 2014)

How the values were obtained:
Homo sapiens [1] = species: Homo sapiens; experiment: Selectivity ratio of Ki for human recombinant adenosine receptor A2b to Ki for human recombinant adenosine receptor A2a
Homo sapiens [2] = species: Homo sapiens; experiment: Selectivity ratio of Ki for human recombinant adenosine A3 receptor to Ki for human recombinant adenosine receptor A2a

SMILES: Cc1cc(Cn2nnc3c(-c4ccco4)nc(N)nc32)ccc1N [VIPADENANT]
- Ratio Ki (Homo sapiens [1]): 48
- Ratio Ki (Homo sapiens [2]): 773
